From PubChem BioAssay AID1021 (Emory University Molecular Libraries Screening Center, 2008)
The entries are a selection whose mix differs from that of the whole data set. Some structures show a salt or complex split into parts, the way the source records it. Calls of active or inactive are those of the source.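 Rule for the calls: active = compounds that cut the binding signal by more than half at the single screening dose; inactive = the rest.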

Chains of the proteins cited; added tags and fusions are not shown.
UniProt Q07820, whole entry: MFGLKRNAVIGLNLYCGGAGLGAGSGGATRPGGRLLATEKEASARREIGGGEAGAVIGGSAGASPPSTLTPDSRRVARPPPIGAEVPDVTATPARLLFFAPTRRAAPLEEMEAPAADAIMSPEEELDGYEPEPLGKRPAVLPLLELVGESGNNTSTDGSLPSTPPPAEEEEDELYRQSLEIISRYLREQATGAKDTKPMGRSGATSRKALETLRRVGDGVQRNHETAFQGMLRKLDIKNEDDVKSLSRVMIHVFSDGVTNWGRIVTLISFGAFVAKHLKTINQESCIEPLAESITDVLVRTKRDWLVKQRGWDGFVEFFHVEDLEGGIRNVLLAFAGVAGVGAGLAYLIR

Each compound was assayed against Induced myeloid leukemia cell differentiation protein Mcl-1 (Homo sapiens) (UniProt Q07820) (assay: Mcl-1/Bid binding inhibitors, primary screen, biochemical, TR-FRET, 1536-well (AID 1021;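 note: His-tagged Mcl-1 with europium anti-His antibody binding Bid BH3 peptide; 0% = Mcl-1 plus peptide wells and 100% = peptide-only wells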)). Details: TR-FRET Mcl-1/Bid-Dy647 peptide binding, at 21.7 µM, active compounds read high.

SMILES | inhibition
CCOP(C)(=S)SCC(=O)NC(C)C(=O)O (stereo not given) | inactive: -24%
CCOC(=O)c1ccc(NP(C)(=O)Oc2ccc(OC)cc2)cc1 (stereo not given) | inactive: -37.5%
CP(=O)(Nc1ccccn1)Oc1ccc(Cl)cc1 (stereo not given) | inactive: -4.72%
CP(=O)(Oc1ccccc1)OC(c1ccccc1)C(F)(F)F (stereo not given) | inactive: -9.87%
Cc1cccc(C)c1OP(C)(=O)Nc1ccc(SC(F)(F)F)cc1 (stereo not given) | inactive: -9.2%
CP(=O)(Nc1ccc(SC(F)(F)F)cc1)Oc1ccc(Cl)cc1 (stereo not given) | inactive: 16%
Cc1cc(C)cc(OP(C)(=O)Nc2ccc(SC(F)(F)F)cc2)c1 (stereo not given) | inactive: 26.8%
CCc1ccc(OP(C)(=O)N2CCN(c3ccc([N+](=O)[O-])cc3)CC2)cc1 (stereo not given) | inactive: -12.2%
CP(=O)(NC(=O)Nc1ccccc1)Oc1ccccc1 (stereo not given) | inactive: -25.6%
CP(=S)(Nn1cnnc1)Oc1ccccc1 (stereo not given) | inactive: -0.17%
COc1ccccc1OP(C)(=O)Nc1ccccc1 (stereo not given) | inactive: -17.9%
CP(=O)(Nc1ccccc1Br)Oc1ccccc1 (stereo not given) | inactive: -10.6%
CCOC(=O)c1ccc(NP(C)(=O)Oc2ccccc2)cc1 (stereo not given) | inactive: 1.74%
Cc1ccc(NP(C)(=O)Oc2ccccc2)c(C)c1 (stereo not given) | inactive: -27.9%
COc1ccccc1OP(C)(=O)Nc1ccc(C)cc1 (stereo not given) | inactive: -18.1%
COc1ccc(OP(C)(=O)Nc2cccc(F)c2)cc1 (stereo not given) | inactive: -11.6%
COc1ccccc1OP(C)(=O)Nc1cc(Cl)ccc1C (stereo not given) | inactive: -8.12%
Cc1cc(C)cc(OP(C)(N)=O)c1 (stereo not given) | inactive: -3.05%
Cc1cccc(C)c1OP(C)(N)=O (stereo not given) | inactive: -21.8%
CC(C)(C)c1ccc(OP(C)(=O)Nc2ccc(SC(F)(F)F)cc2)cc1 (stereo not given) | inactive: 7.17%

SMILES | inhibition
O=[N+]([O-])c1ccc2c(c1)C=Nc1ccccc1O2 | inactive: -15.1%
CCN(CC)CCCOC(=O)C(O)(c1ccccc1)c1ccccc1 | inactive: -7.07%
CP(=O)(Nc1cccc(Br)c1)Oc1ccccc1 (stereo not given) | inactive: -13.7%
Cc1cc(C)cc(OP(C)(=O)Nc2ccccn2)c1 (stereo not given) | inactive: 3.56%
Cc1ccc(C)c(NP(C)(=O)Oc2ccccc2)c1 (stereo not given) | inactive: -10.6%
COc1ccccc1OP(C)(=O)Nc1cccc(Br)c1 (stereo not given) | inactive: 23.6%
Cc1cc(C)cc(OP(C)(=O)Nc2ccc(C)cc2C)c1 (stereo not given) | inactive: -34.6%
CCOC(=O)c1ccc(NP(C)(=O)Oc2cc(C)cc(C)c2)cc1 (stereo not given) | inactive: -11%
CC1=NCCc2c1[nH]c1ccccc21.O=[N+]([O-])c1cc([N+](=O)[O-])c(O)c([N+](=O)[O-])c1 | inactive: 18%
O=C(O)c1cccc(Nc2c([N+](=O)[O-])cc([N+](=O)[O-])cc2[N+](=O)[O-])c1 | inactive: -62.9%
COc1ccccc1OP(C)(=O)Nc1c(C)cccc1C (stereo not given) | inactive: -4.56%
CN1CCCCC1COC(=O)C1(O)c2ccccc2CCc2ccccc21 (stereo not given) | inactive: -17.7%
CP(=O)(Nc1ccc(SC(F)(F)F)cc1)Oc1ccccc1 (stereo not given) | inactive: 4.75%
CCCOc1ccc(NP(C)(=O)Oc2ccc(Cl)cc2)cc1 (stereo not given) | inactive: -16.2%
CCOC(=O)C(CC)C1=NC(C)(C)Cc2ccccc21.O=[N+]([O-])c1cc([N+](=O)[O-])c(O)c([N+](=O)[O-])c1 (stereo not given) | inactive: -6.3%
O=[N+]([O-])c1cc([N+](=O)[O-])c(Nc2nnnn2CCO)c([N+](=O)[O-])c1 | inactive: -3.24%
Cc1nc2ccc3ccccc3c2s1.O=[N+]([O-])c1cc([N+](=O)[O-])c(O)c([N+](=O)[O-])c1 | inactive: 5.49%
O=[N+]([O-])c1cc([N+](=O)[O-])c(-n2nnc3ccccc32)c([N+](=O)[O-])c1 | inactive: -3.1%
CP(=O)(Nc1ccc2c(c1)OCCO2)Oc1ccccc1 (stereo not given) | inactive: -18.5%
Cc1ccccc1NP(C)(=O)Nc1ccccc1C | inactive: -17.7%

SMILES | inhibition
CP(=O)(Nc1ccc(SC(F)(F)F)cc1)Oc1ccc(F)cc1 (stereo not given) | inactive: -3.53%
CCOP(C)(=S)SCC(=O)NC(C)(CC)C(=O)O (stereo not given) | inactive: 19.2%
O=[N+]([O-])c1cc([N+](=O)[O-])c(NCC2CCS(=O)(=O)C2)c([N+](=O)[O-])c1 (stereo not given) | inactive: -11.1%
Cc1cc(-c2cccc3ccccc23)c(C)cn1.O=[N+]([O-])c1cc([N+](=O)[O-])c(O)c([N+](=O)[O-])c1 | inactive: 1.81%
O=[N+]([O-])c1ccc(OP2(=O)COCCO2)cc1 (stereo not given) | inactive: 9.83%
COc1ccc(OP(C)(=O)Nc2cccc(Br)c2)cc1 (stereo not given) | inactive: 6.33%
COc1ccc(NP(C)(=O)Oc2ccccc2OC)cc1 (stereo not given) | inactive: -2.72%
CN(C)CCOC(=O)C(O)(c1ccccc1)C1CCCCC1 (stereo not given) | inactive: -0.86%
CCN(CC)CCCOC(=O)C(O)(c1ccccc1)C1CCCCC1 (stereo not given) | inactive: 0.57%
CCCCCOc1ccc(NP(C)(=O)Oc2ccc(Cl)cc2Cl)cc1 (stereo not given) | inactive: -30.8%
CP(=O)(Nc1ccccc1)Oc1ccc(F)cc1 (stereo not given) | inactive: -2.01%
COc1ccc(OP(C)(=O)Nc2ccc(SC(F)(F)F)cc2)cc1 (stereo not given) | inactive: -7.6%
CCOC(=O)c1ccc(NP(C)(=O)Oc2ccc(F)cc2)cc1 (stereo not given) | inactive: 4.83%
O=C(OCCN1CCN(CCOCc2ccccc2)CC1)C(O)(c1ccccc1)c1ccccc1 | inactive: -12.3%
O=C(OC1CN2CCC1CC2)c1ccc([N+](=O)[O-])cc1 (stereo not given) | inactive: 3.69%
COc1ccc2c(c1O)-c1c(O)c(OC)cc3c1[C@H](C2)[N+](C)(C)CC3.O=[N+]([O-])c1cc([N+](=O)[O-])c([O-])c([N+](=O)[O-])c1[O-] | inactive: -95.1%
CC(C)c1ccc(OP(C)(=O)Nc2ccc(SC(F)(F)F)cc2)cc1 (stereo not given) | inactive: -30%
CP(=O)(Nc1ccccc1F)Oc1ccccc1 (stereo not given) | inactive: 8.42%
O=[N+]([O-])c1cc([N+](=O)[O-])c(Nc2ccccn2)c([N+](=O)[O-])c1 | inactive: -3.52%
Cc1c(NP(C)(=O)Oc2ccc(C(C)C)cc2)c(=O)n(-c2ccccc2)n1C (stereo not given) | inactive: -18.8%
